# Apparent affinities of Ab-14 variants for a coronavirus HR2 peptide

Data: MIT Lincoln Laboratory AlphaSeq set, Li et al. 2023, doi:10.1038/s41467-023-39022-2, as distributed in FLAb.

Binding partner: SARS-CoV-2 spike HR2 peptide, sequence PDVDLGDISGINAS.

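Phage display of a naive human antibody library on the peptide gave the parent. This is the validation round: designs drawn from the data on random variants, tested in the same kind of assay. Their group label is 14L_En_HC (En: ensemble of fine-tuned language models; HC: hill climbing; a sequence that several methods proposed may carry one label only). The scFvs were displayed on barcoded MATa yeast, the peptide on MATalpha yeast. Pairs that bind mate more often; barcode pairs of the diploids are counted by sequencing. The ratio of observed to expected reads was calibrated, replicate by replicate, on BCL2-family standards whose Kd was known from biolayer interferometry. The assay was run in six technical replicates.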

The variants keep the heavy chain, the linker and the frameworks of Ab-14 (scFv order VH, a 15-residue (Gly4Ser)3 linker, VL).
VH: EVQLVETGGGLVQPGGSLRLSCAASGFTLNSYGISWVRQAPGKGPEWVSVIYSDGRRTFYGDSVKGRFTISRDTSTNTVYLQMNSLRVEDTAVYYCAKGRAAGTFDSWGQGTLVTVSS
VL: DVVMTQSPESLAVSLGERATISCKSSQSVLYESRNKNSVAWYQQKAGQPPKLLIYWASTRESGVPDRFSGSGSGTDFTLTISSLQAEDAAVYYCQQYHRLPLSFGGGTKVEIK

Each variant is given by its three light chain CDRs, as the data file delimits them; those of the parent are KSSQSVLYESRNKNSVA, WASTRES, QQYHRLPLS. Values are log10 of the apparent Kd in nM; lower means stronger binding. A mean of the replicates is given; it leaves out those without a signal. A pair that was not seen in that replicate is written "ND"; this usually means weak binding, but a binder can also be missed. The authors averaged sequences with at least three values out of six and counted those with two or fewer as poor binders. A sequence measured in both rounds can read differently, since the two assays cover different ranges. As a blank, each scFv also met three strains without target: over all light chain designs, 4% of these pairings were detected, typically at 2.64 and seldom below 1.59. The control count says in how many pairings with the empty strains this scFv gave a signal, with their mean in brackets. Of ten entries with the parent sequence, four were seen in most replicates (averages 0.34 to 2.37), three in one and three in none, so single entries are noisy.

| CDR-L1 | CDR-L2 | CDR-L3 | log10 Kd (nM) by replicate | mean log10 Kd (nM) | control signals |
|---|---|---|---|---|---|
| KISQLVNFEGKLKNSVA | QMSTRES | QQYDRLPLS | 1.61 2.06 1.88 1.95 2.47 2.47 | 2.07 | 1/18 (3.02) |
| KLSFSHQVESINKSNVA | EMVTRES | QQYHRLPLS | 1.34 0.88 1.68 1.57 1.28 1.77 | 1.42 | 1/18 (2.31) |
| KLIQSVAMSSRVKDSIA | DNSTRES | QQYHRLPLS | 1.60 1.94 1.55 1.70 1.97 2.27 | 1.84 | 1/18 (2.94) |
| IISQVDDYLSRNTNSIA | DQSTRGS | QQYDRLPLS | 1.22 1.17 1.15 0.90 0.48 1.67 | 1.10 | 1/18 (1.76) |
| TLTQSVLMESHNKNSVA | DLSTRGS | QQYDRLPLS | 1.29 0.49 0.46 0.19 0.50 0.28 | 0.53 | 0/18 |
| TIGQMFNGESRNRNSVA | QASTREP | QSYDRLPLS | 0.20 -0.04 -0.08 -0.09 -0.26 0.13 | -0.02 | 1/18 (3.07) |
| KLLQEVTGHSRNRYSVA | HNSTRED | QQYDRLPLS | ND ND ND 2.29 ND ND | 2.29 | 2/18 (2.40) |
| KISMLQRYESKAKNSIA | EMSRREE | QQYHRLPLS | -0.13 -0.07 -0.07 0.02 -0.17 0.16 | -0.04 | 1/18 (1.95) |
| KLSISYLFESLEKNSIA | ENSTRES | QHYHRLPLS | ND ND ND 2.09 ND 2.11 | 2.10 | 2/18 (2.04) |
| KFGQSVLMGSYVRNSVA | QTSTREN | QQYDRLPLS | 1.74 2.28 1.39 1.37 1.58 1.71 | 1.68 | 1/18 (3.40) |
| KISQMVTYESTWHSAIA | QTSEREE | QQYHRLPLS | 1.11 0.54 0.36 0.46 0.26 0.06 | 0.46 | 0/18 |
| MLLQATMVGERQRNSVA | HASTRED | QQYHRLPLI | 0.50 0.47 0.74 0.40 0.33 0.72 | 0.53 | 0/18 |
| ILYESVGTLSRNVNSVA | DNSTRES | QQYDRLPLS | ND ND 1.96 2.84 ND ND | 2.40 | 2/18 (2.90) |
| KLTQVTHSEHRNKNSIA | EMVTREK | QQYDRLPLS | 0.93 0.93 1.23 0.93 1.05 1.28 | 1.06 | 0/18 |
| SLAESVHMESRNKNSVA | DNSTREY | QHYHRLPLS | 4.49 ND ND ND ND ND | 4.49 | 0/18 |
| KISQVAMMTGKAKNSVA | NAYTRVQ | QQYHRLPLS | 0.71 0.64 0.56 0.64 0.65 0.50 | 0.61 | 4/18 (3.54) |
| KISQMYRYEQQNHSSIA | EASTREN | QSYHRLPLS | 1.24 0.77 0.72 1.00 1.16 0.81 | 0.95 | 2/18 (2.68) |
| MLSDLVKMGVRNTNSVA | DNSTRGS | QQYDRLPLS | ND 2.19 ND 1.42 3.28 2.58 | 2.37 | 1/18 (2.64) |
| TLGDVTRMESNKKNSIA | DMSNRAD | QQYHRLPIS | 0.06 0.06 -0.10 -0.13 -0.07 0.19 | 0.00 | 0/18 |
| KLSESVRMESFNKNSVA | ENSTRES | QDYHRLPLS | 1.54 1.59 1.93 1.33 1.89 1.75 | 1.67 | 0/18 |
| NISEPMYFQTRMKNNIA | EVSTRER | QHYHRLPLS | ND 2.44 2.30 2.86 2.41 2.15 | 2.43 | 0/18 |
| KIQGMYQKESKNKNSVA | EMVNRES | QQYDRLPLS | 1.83 1.52 0.78 0.78 1.34 2.99 | 1.54 | 1/18 (2.37) |
| MLLQATMYGERNRNSVA | HANTRED | QQYHRLPLI | 1.83 1.73 ND ND 1.53 2.55 | 1.91 | 0/18 |
| HMSQVTMYGYWTKNSVA | QTSTREE | QQYDRLPLS | 0.75 0.89 0.54 0.50 0.72 0.98 | 0.73 | 0/18 |
| KIGGVTNGISRSKNSVA | EQSTRYD | QQYDRLPLS | 0.10 0.18 0.08 0.45 0.32 0.11 | 0.21 | 1/18 (2.36) |
| KFGQMVLTGSYVKNSIA | QSSTREN | QQYHRLPLS | 0.48 0.23 0.28 0.10 0.34 0.35 | 0.30 | 2/18 (2.38) |
| KLRQVTGYMEYNKNSVA | QTSTRVS | QDYHRLPLS | 0.91 0.91 0.79 0.80 0.80 0.84 | 0.84 | 4/18 (2.97) |
| KISMLQRYESQNKNSIA | EMSRREN | QQYHRLPLS | 0.62 0.27 0.62 0.45 0.58 0.37 | 0.48 | 1/18 (2.79) |
| HLGGLMTWEEKNRNSVA | QQETRAE | QQYHHLPLS | 0.09 0.01 0.10 -0.09 0.09 0.12 | 0.05 | 1/18 (1.88) |
| ALNDVTRMESNKKNSIA | DMSTRES | QQYHRLPLS | 0.18 0.47 0.10 0.26 0.71 0.05 | 0.29 | 0/18 |
| KIGLVTNGIQFSTNSVA | EQSTREN | QQYDRLPLS | 1.10 0.73 1.21 0.89 1.12 1.02 | 1.01 | 0/18 |
| TIGQMFNGESRSRNSVA | QASTRES | QSYDRLPLS | ND 1.20 1.60 2.11 1.56 1.74 | 1.64 | 0/18 |
| KLTMMYQHTSRNKNNIA | ERSTREE | QQYNHLPLS | 1.92 1.28 ND 0.21 0.72 1.09 | 1.05 | 0/18 |
| TLTQVQGMESHNKNSVA | DLSTRGS | QQYHRLPLS | 0.17 0.01 -0.22 -0.34 -0.07 0.28 | -0.03 | 0/18 |
| KIAQLVMETSKNKNNVA | EVSTLPD | QQYHRLPLS | ND 1.59 0.07 2.67 1.06 ND | 1.35 | 0/18 |
| KLSYVTHSEHRNKNSIA | EMVTREK | QQYDRLPLS | 1.88 ND ND ND 1.64 2.12 | 1.88 | 1/18 (1.20) |
| TISQSLMMQTSHKNSVA | GEETRYS | QQYHRLPLS | 0.93 0.32 0.75 0.49 1.48 0.64 | 0.77 | 0/18 |
| KLSQYVGGESRNKSSLA | DNNTRES | QQYERLPLS | 1.40 2.55 1.84 2.26 2.68 1.65 | 2.06 | 1/18 (2.77) |